Test results taken from US6866870B2 (priority 2002, dated 2005).

Legend:
[1] = determined spectrally; alkaline pH; 24° C.; order of addition First/Second
[2] = system: biofilms of Leuconostoc mesenteroides

[Na+].[O-]Cl [NaHClO3, sodium hypochlorite]
Half-life [1]: 221 days

OO [H2O2, hydrogen peroxide]
Colony Forming Units/cm^2 [2]: 6.7 Colony Forming Units/cm^2 and 6.9 Colony Forming Units/cm^2 and 6.8 Colony Forming Units/cm^2

“And” between values parts separate entries of the source, which are not always exact repeats. Identical values can stand only once.
